Earlier results as cited in publication PMC10714751 (Microbiology Spectrum, 2023).
Starred links: 1 amine or outer side, 2 acyl side, 3 side chain; linkers in the order of their positions; H or OH if unused. Positions of bridges follow the written chain, without caps; N, C: chain ends. Non-standard residues stand in square brackets, D forms with d. Residues, ends and D or L forms follow the SMILES beside them. *: point of attachment. dAsp(3R-OH) = N[C@@H](C(=O)O)[C@@H](O)C(=O)O; Palmitoleoyl = CCCCCC/C=C\CCCCCCCC(=O)*; X1 = NC[C@H](O)[C@@H](N[*:1])C(=O)[*:2]; X2 = CCC(C)(O)[C@H](N[*:1])C(=O)[*:2]; d(aIle) = CC[C@H](C)[C@@H](N)C(=O)O; d(aThr) = C[C@@H](O)[C@@H](N)C(=O)O; Myristoyl = CCCCCCCCCCCCCC(=O)*; dOrn = NCCC[C@@H](N)C(=O)O; hSer = N[C@@H](CCO)C(=O)O

Test system: clinical multidrug-resistant Acinetobacter strains
Conditions: cited from earlier work

CCCCCCCCCCCCCC(=O)N[C@H](CCCN)C(=O)N[C@@H](CO)C(=O)N[C@H](C(=O)N[C@@H](C(=O)N[C@@H](C(=O)N[C@H]1C(=O)NCC(=O)N[C@@H](C(C)(O)CC)C(=O)N[C@H]([C@@H](C)CC)C(=O)N[C@@H](CCO)C(=O)N[C@@H](C)C(=O)N[C@H]([C@@H](C)CC)C(=O)N[C@@H](CCC(=O)O)C(=O)O[C@@H]1C)[C@@H](O)CN)[C@@H](O)C(=O)O)C(C)C (stereo partly drawn) [Turnercyclamycin A] (Myristoyl-[dOrn]SV[dAsp(3R-OH)][X1][d(aThr)]G[X2][d(aIle)][hSer]A[d(aIle)]E; ester 6-C)
activity against all tested clinical multidrug-resistant Acinetobacter strains: active

CCCCCC/C=C\CCCCCCCC(=O)N[C@H](CCCN)C(=O)N[C@@H](CO)C(=O)N[C@H](C(=O)N[C@@H](C(=O)N[C@@H](C(=O)N[C@H]1C(=O)NCC(=O)N[C@@H](C(C)(O)CC)C(=O)N[C@H]([C@@H](C)CC)C(=O)N[C@@H](CCO)C(=O)N[C@@H](C)C(=O)N[C@H]([C@@H](C)CC)C(=O)N[C@@H](CCC(=O)O)C(=O)O[C@@H]1C)[C@@H](O)CN)[C@@H](O)C(=O)O)C(C)C (stereo partly drawn) [Turnercyclamycin B] (Palmitoleoyl-[dOrn]SV[dAsp(3R-OH)][X1][d(aThr)]G[X2][d(aIle)][hSer]A[d(aIle)]E; ester 6-C)
activity against all tested clinical multidrug-resistant Acinetobacter strains: active
